Laboratory results reported in PMC7047575 (The AAPS journal, 2018).
“And” between values parts separate entries of the source, which are not always exact repeats. Equal values may be shown once.

Sequences of proteins named here, by UniProt entry; tags and fusion partners are left off. A change or cut given only in a name is not applied to a line headed by its entry. Residues count along the entry.
UniProt P09483, 31-630: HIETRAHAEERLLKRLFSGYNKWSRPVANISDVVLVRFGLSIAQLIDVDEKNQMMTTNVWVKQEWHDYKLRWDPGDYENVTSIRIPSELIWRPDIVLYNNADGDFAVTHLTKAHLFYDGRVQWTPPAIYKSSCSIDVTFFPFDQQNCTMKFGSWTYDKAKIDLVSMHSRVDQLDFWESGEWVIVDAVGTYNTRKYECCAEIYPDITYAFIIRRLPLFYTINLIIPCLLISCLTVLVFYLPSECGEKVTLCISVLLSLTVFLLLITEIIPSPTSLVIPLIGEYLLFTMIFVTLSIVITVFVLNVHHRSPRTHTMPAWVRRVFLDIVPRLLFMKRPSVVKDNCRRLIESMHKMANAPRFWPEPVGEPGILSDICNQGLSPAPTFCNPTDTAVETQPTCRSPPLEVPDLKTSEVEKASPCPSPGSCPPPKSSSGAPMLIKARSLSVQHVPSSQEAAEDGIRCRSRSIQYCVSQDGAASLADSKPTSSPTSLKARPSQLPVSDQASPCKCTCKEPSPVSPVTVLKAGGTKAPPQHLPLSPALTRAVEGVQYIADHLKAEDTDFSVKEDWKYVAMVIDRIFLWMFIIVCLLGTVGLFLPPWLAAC
UniProt P12390, 25-500: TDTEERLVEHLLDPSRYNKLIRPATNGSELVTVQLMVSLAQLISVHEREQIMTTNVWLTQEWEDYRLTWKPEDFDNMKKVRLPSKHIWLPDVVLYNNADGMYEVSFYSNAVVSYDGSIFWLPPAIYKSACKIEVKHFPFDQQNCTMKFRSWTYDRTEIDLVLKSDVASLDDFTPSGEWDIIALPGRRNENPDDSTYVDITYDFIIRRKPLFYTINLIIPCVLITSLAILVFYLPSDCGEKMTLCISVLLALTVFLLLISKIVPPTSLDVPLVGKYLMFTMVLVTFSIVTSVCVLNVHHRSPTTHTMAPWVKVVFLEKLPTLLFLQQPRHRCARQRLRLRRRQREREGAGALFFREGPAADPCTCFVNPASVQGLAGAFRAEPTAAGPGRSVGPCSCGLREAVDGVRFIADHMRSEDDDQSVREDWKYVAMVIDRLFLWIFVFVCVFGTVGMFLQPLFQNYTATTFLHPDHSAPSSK
UniProt P23977, whole entry: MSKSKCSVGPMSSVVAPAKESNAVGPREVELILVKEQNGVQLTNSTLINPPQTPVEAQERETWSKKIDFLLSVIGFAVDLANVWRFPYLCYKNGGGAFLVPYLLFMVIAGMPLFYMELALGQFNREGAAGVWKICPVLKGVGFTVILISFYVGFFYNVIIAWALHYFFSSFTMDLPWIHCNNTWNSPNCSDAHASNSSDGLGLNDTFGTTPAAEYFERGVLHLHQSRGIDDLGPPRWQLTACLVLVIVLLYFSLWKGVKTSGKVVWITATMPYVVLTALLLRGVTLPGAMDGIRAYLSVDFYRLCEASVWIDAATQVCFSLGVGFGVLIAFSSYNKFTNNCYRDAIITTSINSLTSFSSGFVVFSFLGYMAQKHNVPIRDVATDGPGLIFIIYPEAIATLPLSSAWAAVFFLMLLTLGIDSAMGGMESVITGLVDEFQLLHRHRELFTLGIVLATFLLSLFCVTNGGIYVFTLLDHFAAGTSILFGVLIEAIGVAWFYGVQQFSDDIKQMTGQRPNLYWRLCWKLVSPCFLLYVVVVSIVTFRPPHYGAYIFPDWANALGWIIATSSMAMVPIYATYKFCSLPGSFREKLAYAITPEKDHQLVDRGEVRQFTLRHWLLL
UniProt P31652, whole entry: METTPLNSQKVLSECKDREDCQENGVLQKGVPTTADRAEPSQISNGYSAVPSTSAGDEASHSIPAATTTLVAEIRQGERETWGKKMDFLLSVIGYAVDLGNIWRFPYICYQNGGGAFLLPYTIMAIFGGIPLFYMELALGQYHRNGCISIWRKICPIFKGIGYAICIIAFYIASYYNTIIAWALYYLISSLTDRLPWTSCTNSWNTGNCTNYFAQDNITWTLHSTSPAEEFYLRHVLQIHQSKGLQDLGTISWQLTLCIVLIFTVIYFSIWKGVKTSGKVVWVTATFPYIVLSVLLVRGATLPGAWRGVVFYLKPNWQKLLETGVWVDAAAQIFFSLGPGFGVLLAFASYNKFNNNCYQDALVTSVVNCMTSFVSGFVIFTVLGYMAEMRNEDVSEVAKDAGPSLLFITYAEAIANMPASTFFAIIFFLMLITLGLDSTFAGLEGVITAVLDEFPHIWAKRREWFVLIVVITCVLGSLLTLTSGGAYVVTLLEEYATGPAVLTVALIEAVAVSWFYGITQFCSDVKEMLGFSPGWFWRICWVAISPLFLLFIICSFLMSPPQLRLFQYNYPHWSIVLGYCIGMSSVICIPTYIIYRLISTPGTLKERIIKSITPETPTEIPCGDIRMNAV
UniProt Q01827, whole entry: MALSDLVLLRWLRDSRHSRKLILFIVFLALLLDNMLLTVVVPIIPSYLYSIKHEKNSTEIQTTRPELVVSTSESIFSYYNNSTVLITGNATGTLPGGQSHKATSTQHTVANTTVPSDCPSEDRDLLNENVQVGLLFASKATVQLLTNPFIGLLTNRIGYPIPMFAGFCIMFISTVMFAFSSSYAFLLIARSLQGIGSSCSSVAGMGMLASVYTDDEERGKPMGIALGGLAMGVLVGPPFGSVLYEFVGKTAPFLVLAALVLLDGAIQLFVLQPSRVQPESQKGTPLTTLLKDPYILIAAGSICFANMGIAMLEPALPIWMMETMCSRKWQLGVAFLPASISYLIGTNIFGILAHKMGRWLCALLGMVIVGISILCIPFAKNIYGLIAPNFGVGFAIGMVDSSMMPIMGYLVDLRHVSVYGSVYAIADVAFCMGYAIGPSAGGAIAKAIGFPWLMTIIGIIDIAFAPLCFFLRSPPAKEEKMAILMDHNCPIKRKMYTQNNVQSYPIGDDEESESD
UniProt Q12809: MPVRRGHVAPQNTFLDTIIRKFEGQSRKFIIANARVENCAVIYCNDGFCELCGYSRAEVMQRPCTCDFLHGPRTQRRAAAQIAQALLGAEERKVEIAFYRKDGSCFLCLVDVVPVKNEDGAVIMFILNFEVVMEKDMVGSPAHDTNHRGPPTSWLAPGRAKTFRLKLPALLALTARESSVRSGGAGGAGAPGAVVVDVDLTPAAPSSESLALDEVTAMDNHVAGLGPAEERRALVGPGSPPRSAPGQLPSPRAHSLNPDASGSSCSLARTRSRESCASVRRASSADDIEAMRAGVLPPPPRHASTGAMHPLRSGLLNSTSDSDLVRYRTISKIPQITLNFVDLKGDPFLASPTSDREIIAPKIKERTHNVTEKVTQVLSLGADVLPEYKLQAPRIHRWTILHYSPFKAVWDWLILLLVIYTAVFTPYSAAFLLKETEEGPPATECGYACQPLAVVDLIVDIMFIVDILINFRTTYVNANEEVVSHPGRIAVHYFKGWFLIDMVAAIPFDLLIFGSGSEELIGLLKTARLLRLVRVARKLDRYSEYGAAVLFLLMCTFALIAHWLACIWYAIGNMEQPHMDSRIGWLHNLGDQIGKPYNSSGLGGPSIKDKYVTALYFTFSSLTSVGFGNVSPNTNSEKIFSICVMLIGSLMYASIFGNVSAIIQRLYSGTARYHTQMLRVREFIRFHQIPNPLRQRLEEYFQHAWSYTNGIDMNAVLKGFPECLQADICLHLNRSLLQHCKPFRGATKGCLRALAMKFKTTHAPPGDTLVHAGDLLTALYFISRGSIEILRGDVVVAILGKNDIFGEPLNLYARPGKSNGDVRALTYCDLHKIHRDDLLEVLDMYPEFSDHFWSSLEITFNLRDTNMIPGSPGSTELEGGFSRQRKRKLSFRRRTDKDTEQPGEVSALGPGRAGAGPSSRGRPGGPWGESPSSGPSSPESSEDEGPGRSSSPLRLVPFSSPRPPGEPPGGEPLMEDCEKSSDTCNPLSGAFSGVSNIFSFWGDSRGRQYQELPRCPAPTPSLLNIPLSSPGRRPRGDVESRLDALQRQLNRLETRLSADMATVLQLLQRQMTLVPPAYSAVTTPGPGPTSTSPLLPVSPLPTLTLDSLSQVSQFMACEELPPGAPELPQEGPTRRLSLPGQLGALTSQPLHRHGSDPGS

What was measured:
α4β2 nAChRs = α4β2 nAChRs (Rattus norvegicus, UniProt P09483+P12390); assay: [3H]NIC binding to rat brain membranes; details: discussion statement
[1] = system: METH-sensitized locomotor activity; assay: METH-induced hyperactivity in METH-sensitized rats, GZ-11610 s.c.; assay type: in vivo, rat; details: Tukey's test, p < 0.05
DAT = DAT (Rattus norvegicus, UniProt P23977); assay: Synaptosomal [3H]DA uptake, rat striatal synaptosomes; assay type: biochemical; details: ratio of Ki values
SERT = SERT (Rattus norvegicus, UniProt P31652); assay: Synaptosomal [3H]5-HT uptake, rat striatal synaptosomes; assay type: biochemical; details: ratio of Ki values
VMAT2 = VMAT2 (Rattus norvegicus, UniProt Q01827); assay: Vesicular [3H]DA uptake, rat striatal synaptic vesicles; assay type: biochemical; details: overall statement
hERG channels = hERG channels (Homo sapiens, UniProt Q12809); assay: [3H]Dofetilide binding to hERG channels on HEK-293 cell membranes; details: discussion statement
[2] = target: hERG channels (selectivity for VMAT2 over hERG) (Homo sapiens, UniProt Q12809); assay: as above; details: human, pH 7.4
[3] = system: METH-sensitized locomotor activity; assay: METH-induced hyperactivity in METH-sensitized rats, GZ-11610 oral; assay type: in vivo, rat
[4] = decrease of METH-sensitized locomotor activity

SMILES: COc1ccc(CCCN[C@H](C)Cc2ccccc2)cc1 [GZ-11610, R-3-(4-methoxyphenyl)-N-(1-phenylpropan-2-yl)propan-1-amine]
- selectivity for VMAT2 over nicotinic receptor subtypes (α4β2 and α7) (α4β2 nAChRs): greater than 4 orders of magnitude
- doses different from vehicle in the METH group (reduced distance traveled) [1]: 3 to 30 mg/kg
- selectivity for VMAT2 over DAT (DAT): 290 fold and 288 fold
- selectivity for VMAT2 over SERT (SERT): 637 fold
- selectivity for VMAT2 over DAT, SERT, hERG, and α4β2 and α7 nAChRs (VMAT2): greater than two-orders of magnitude
- selectivity for VMAT2 over hERG (hERG channels): 4 orders of magnitude
- selectivity ratio at 60 min [2]: > 1000
- dose required following oral relative to s.c. administration [3, 4]: approximately 10 fold
- maximal effect after oral administration relative to s.c. administration [3, 4]: about 50%
- doses different from vehicle in the METH group (reduced distance traveled) ([3]; oral, Tukey's test, p < 0.05): 56 mg/kg and 56 to 300 mg/kg
